Among the data in patent US20240150367A1, “NITROGEN-CONTAINING SPIRO CYCLIC COMPOUNDS AND PHARMACEUTICAL USE THEREOF” (Japan Tobacco Inc., priority 2009, published 2024) are inhibition and IC50 values, retold here.

Sequences of proteins named here, by UniProt entry; tags and fusion partners are left off. Residues count along the entry.
UniProt P52333, 781-1124 limits assumed: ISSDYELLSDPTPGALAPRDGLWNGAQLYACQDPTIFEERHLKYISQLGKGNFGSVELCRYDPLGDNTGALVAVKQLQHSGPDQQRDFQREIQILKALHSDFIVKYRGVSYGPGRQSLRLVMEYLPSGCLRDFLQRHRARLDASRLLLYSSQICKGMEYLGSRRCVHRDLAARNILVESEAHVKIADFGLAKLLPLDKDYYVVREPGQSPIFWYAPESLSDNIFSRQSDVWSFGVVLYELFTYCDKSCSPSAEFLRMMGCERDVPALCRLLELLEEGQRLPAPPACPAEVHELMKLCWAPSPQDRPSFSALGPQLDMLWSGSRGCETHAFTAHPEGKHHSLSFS

Structures are written as SMILES. pIC50: −log10 of the molar value.

This assay concerns the target hJAK3 kinase domain (aa781-end) (Homo sapiens (Human), UniProt P52333). Nature of the assay: JAK3 activity inhibition, kinase reaction (Test 1). The note with it: for pIC50: read-out: JAK3 IC50.

What is called inhibition is how much of the control response was suppressed. With `CC1CN(C(=O)CC#N)C12CCN(c1ncnc3[nH]ccc13)C2` (stereo not drawn) [Compound 10], the inhibition at 0.1 µM (read-out: JAK3 % Inhibition) was found to be 28%.
In general, pIC50 refers to the IC50 on a negative log10 scale, so that one unit is a factor of ten. Take `CC1CN(C(=O)CC#N)C12CCN(c1ncnc3[nH]ccc13)C2` (stereo not drawn) [Compound 19]: the pIC50 was 6.40.
For the compound `CC1CN(C(=O)CC#N)C12CCN(c1ncnc3[nH]ccc13)C2` (stereo not drawn) [Compound 6, 3-[3-methyl-6-(7H-pyrrolo[2,3-d]pyrimidin-4-yl)-1,6-diazaspiro[3.4]oct-1-yl]-3-oxopropionitrile], the pIC50 is 8.15.
